By UniProt entry, the sequences of proteins in these tests, tags left out. Residues count along the entry.
UniProt H0VZC5, 1-426: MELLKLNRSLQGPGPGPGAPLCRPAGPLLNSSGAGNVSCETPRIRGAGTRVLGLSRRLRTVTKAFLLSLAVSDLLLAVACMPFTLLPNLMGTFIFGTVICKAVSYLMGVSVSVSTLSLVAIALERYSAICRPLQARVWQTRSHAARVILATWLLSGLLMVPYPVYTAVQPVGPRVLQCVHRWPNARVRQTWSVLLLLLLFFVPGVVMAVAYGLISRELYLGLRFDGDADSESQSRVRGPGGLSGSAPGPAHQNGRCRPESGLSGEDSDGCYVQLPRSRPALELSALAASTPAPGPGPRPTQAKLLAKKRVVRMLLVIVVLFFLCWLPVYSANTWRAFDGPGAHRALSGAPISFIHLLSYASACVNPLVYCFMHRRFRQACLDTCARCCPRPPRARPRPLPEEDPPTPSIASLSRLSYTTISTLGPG

In US20070185115A1, “Novel ureido-and amido-pyrazolone derivatives” (Aston University, priority 2003, published 2007):

Molecular target: CCKB receptor (Cavia porcellus, UniProt H0VZC5)
Assay: 125I-CCK-8 receptor binding assay, CCKB (guinea pig cerebral cortex membranes)
Description: Pharmacological Methods—^[125]I-CCK-8 Receptor Binding Assay
CCKA and CCKB receptor binding assays were performed, by using guinea pig cerebral cortex (CCKB) or rat pancreas (CCKA). Male guinea pig brain tissues were prepared according to the modified method described by Saita et al, [(1994), Characterization of YM022: its CCKB/gastrin receptor binding profile and antagonism to CCK-8-induced Ca2+mobilization., Eur. J. PharmacoL,269, 249-254]. Pancreatic membranes were prepared in a similar way but by Charpentier et al, [(1988), Cyclic cholecystokinin analogues with high selectivity for central receptors., Proc Natl Acad Sci USA, 85, 1968-1972]. For the in vivo CCK binding assay tissues were homogenised in ice cold sucrose (0.32 M, 25 ml) for 15 strokes at 500 rpm and centrifuged at 13000 rpm for 10 mins. The supernatant was re-centrifuged at 13000 rpm for 20 mins. The resulting pellet was re-dispersed to the required volume of buffer at 500 rpm and stored in aliquots at […].
Binding was achieved using a.radioligand ^125I-Bolton-Hunter labeled CCK, NEN at 25 pM. The samples were incubated {with membranes (0.1 mg/ml)} in 20 mM Hepes, 1 mM EGTA, 5 mM MgCl2, 150 mm NaCl, 0.25 mg/ml bacitracin at pH 6.5 for 2 hrs at RT and then […] by centrifugation at 1100 rpm for 5 minutes. The membrane pellets were washed twice with water and the bound radioactivity was measured in a Packard Cobra Auto-gamma counter (B5005). All binding assays were carried out with L-365, 260 (Bock, M. G., et. al., Benzodiazepine gastrin and brain cholecystokinin receptor ligands. L-365,260, J. Med. Chem. 1989, 32, 14-24) as an internal non-specific standard. Controls (no compound) were also added. All samples were made in duplicate and repeated twice. All compounds were initially screened for percentage inhibition at 20 μm. Samples showing an average inhibition of <35% were diluted to 2μm and re-screened and if active diluted again.

[1] = read-out: IC50 CCKB, Table 1, phenyl pyrazolinone ureas, 125I-Bolton-Hunter CCK 25 pM

SMILES | IC50 [1] | IC50 (read-out: IC50 CCKB, Table 3, diphenyl pyrazolyl ureas, 125I-Bolton-Hunter CCK 25 pM)
Cc1c(NC(=O)NC(C)(C)C)c(=O)n(-c2ccccc2)n1C | 8 µM | –
COc1cccc(NC(=O)Nc2c(C)n(C)n(-c3ccccc3)c2=O)c1 | > 10 µM | –
Cc1c(NC(=O)Nc2ccc([N+](=O)[O-])cc2)c(=O)n(-c2ccccc2)n1-c1ccccc1 | – | > 20 µM
Cc1c(NC(=O)Nc2ccc([N+](=O)[O-])cc2)c(=O)n(-c2ccccc2)n1C | > 20 µM | –
Cc1ccccc1NC(=O)Nc1c(C)n(C)n(-c2ccccc2)c1=O | 7 µM | –

Read-outs that look alike come from different tables or passages of the source.
